This is an account of results in paper PMC6273584, “Synthesis of Thiazolo[5,4-f]quinazolin-9(8H)-ones as Multi-Target Directed Ligands of Ser/Thr Kinases” (Molecules, 2016).

Amino acid sequences for entries named in this document (tags omitted).
UniProt Q00535, whole entry: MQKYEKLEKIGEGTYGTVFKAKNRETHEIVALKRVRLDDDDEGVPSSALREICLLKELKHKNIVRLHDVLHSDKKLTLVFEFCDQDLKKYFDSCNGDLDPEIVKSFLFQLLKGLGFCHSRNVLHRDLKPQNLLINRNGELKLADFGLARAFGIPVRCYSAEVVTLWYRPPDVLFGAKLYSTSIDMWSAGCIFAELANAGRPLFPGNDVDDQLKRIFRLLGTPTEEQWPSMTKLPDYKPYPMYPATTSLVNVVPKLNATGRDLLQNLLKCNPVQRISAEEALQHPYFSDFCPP

A value given as a limit tells only on which side of the number the result lay.

Experiment [1] concerns the target T1, CDK5/p25 (Homo sapiens, UniProt Q00535).
T1 construct: made in house
The experiment can be described thus: In vitro kinase assay CDK5/p25, [γ-33P]ATP, histone H1 substrate. It is filed as biochemical.

In experiment [2] the target is GSK-3α/β. The experiment in a line: In vitro kinase assay GSK-3α/β, GS-1 peptide substrate. It is filed as biochemical, Porcine. Conditions: 15 μM ATP, 30 min, 30 °C, triplicate; <50% inhibition at 10 μM = IC50 >10 μM.

Compound `COc1ccc2c(c1)[nH]c1c(C)nccc12` [Harmine, reference compound] displayed an IC50 in experiment [1] above 10000 nM. As for `CCOC(=N)c1nc2ccc3ncn(C(C)C)c(=O)c3c2s1` [Compound 14d, Ethyl 8-isopropyl-9-oxo-8,9-dihydrothiazolo[5,4-f]quinazoline-2-carboximidoate], 170 nM corresponded to half-maximal inhibition in experiment [2] (IC50).

As usually defined, the IC50 is the point on the concentration scale where inhibition reaches its midpoint. Read a high IC50 as weaker potency in that assay.
